Measured values reported in PubChem BioAssay AID624370 (The Scripps Research Institute Molecular Screening Center, 2012).
This is a selection; strong and weak results do not stand in their true shares. Activity calls are given as the source filed them.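 Rule for the calls: active = mean inhibition across replicates above a set limit taken from the earlier primary screen (cut at about 21% in these data); inactive = the rest.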

Sequences of proteins named here, by UniProt entry; tags and fusion partners are left off.
UniProt O43353, whole entry, looked up: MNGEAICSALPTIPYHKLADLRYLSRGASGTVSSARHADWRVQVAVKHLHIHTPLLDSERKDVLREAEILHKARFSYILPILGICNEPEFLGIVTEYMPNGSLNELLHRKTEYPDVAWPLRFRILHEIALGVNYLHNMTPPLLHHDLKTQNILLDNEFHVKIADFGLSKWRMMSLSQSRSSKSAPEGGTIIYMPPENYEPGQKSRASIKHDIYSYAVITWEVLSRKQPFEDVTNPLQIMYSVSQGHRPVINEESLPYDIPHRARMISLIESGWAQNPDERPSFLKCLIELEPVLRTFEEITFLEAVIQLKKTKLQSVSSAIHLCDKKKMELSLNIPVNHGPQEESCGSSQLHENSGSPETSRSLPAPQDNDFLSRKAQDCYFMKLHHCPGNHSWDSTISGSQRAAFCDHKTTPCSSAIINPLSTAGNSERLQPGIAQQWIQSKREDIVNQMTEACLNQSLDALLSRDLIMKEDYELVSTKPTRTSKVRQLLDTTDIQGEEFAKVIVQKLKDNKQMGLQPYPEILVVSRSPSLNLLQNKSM

These compounds were tested against Receptor-interacting serine/threonine-protein kinase 2 (Homo sapiens) (UniProt O43353) (assay: NOD2-RIPK2 binding disruptors, retest, confirmation, fluorescence, CHO cells, BLA complementation, triplicate (AID 624370;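 note: 0% = DMSO-only wells and the high end = clavulanate BLA-blocked wells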)). Details: CCF4 FRET, at 4.98 µM, active compounds read high.

Row | Compound | inhibition
1 | CN(C)C(=O)c1cc([N+](=O)[O-])cc2c1-c1c(cc([N+](=O)[O-])cc1[N+](=O)[O-])C2=O | active: 51.1%
2 | C[N+]1=C2C=CC=CC=C2SC12C([N+](=O)[O-])=CC([N+](=O)[O-])=C[C-]2[N+](=O)[O-] (configuration not stated) | inactive: 13.9%
